These results are taken from patent US12533361B2, “Use of polaprezinc in preparing drug for treating castration-resistant prostate cancer” (Jiangnan University, priority 2021, dated 2026).

In this test the test system is AR. Nature of the test: Immunohistochemistry of AR in prostate tissue sections (Example 4). To be noted: 30 days administration after relapse, Enza 10 mg/Kg, Pola 20 mg/Kg, combined 10 + 20 mg/Kg, NC group 94. It is filed as in vivo, mouse. The method, then: After the relapse of the CRPC caused by drug resistance occurred (the mice were 6 month old), the mice were randomly divided into a normal control group (always gavaged with a solvent), an Enza single group, a Pola single group, and an Enza and Pola combined group. The mice were correspondingly gavaged. The mice were gavaged with 10 mg/Kg of Enza each time in the Enza single group, 20 mg/Kg of Pola each time in the Pola single group, and 10 mg/Kg of Enza and 20 mg/Kg of Pola each time in the Enza and Pola combined group once every three days for a total of 30 days. The mice were sacrificed and their prostate cancers were photographed, weighed and subjected to immunohistochemistry.
2. Results of effects of Enza, Pola and combined use thereof on a mouse model of prostate cancer with overexpression of C-MYC after resistance generated by continuous administration of Enza are shown in FIGS. 4A-4C and FIG. 5A-5B.

Regarding `CNC(=O)c1ccc(N2C(=S)N(c3ccc(C#N)c(C(F)(F)F)c3)C(=O)C2(C)C)cc1F` [Enza, enzalutamide], the “Expression amount of AR/%” value stood at 71.5%.
